Results as given in patent US20260109742A1 (LUMEN BIOSCIENCE, published 2026).

B1: PP2455 (myctag-S3b-C8-smAKAP_R63E_C70S_C78G-S3b-C8-H6) (bispecific antibody)
chain: MEQKLISEEDLSGGQVQLVESGGGLVQPGGSLRLSCAASGSIENIERMHWYRQAPGKQRELVAVIDSGGTTRYADSVKGRFTISRDNAKNTVYLQMNSLKPEDTAVYYCAAVWLTNAESTQEYWGQGTQVTVSSGGGGSTVILEYAHELSQDILSDALQQWAGGGSGSQVQLVESGGGLVQPGGSLRLSCAASGSIENIERMHWYRQAPGKQRELVAVIDSGGTTRYADSVKGRFTISRDNAKNTVYLQMNSLKPEDTAVYYCAAVWLTNAESTQEYWGQGTQVTVSSHHHHHH
notes: also called R63E mutant
B2: PP2456 (myctag-S3b-C8-smAKAP_R63E_C70S_W76S_C78G-S3b-C8-H6) (bispecific antibody)
chain: MEQKLISEEDLSGGQVQLVESGGGLVQPGGSLRLSCAASGSIENIERMHWYRQAPGKQRELVAVIDSGGTTRYADSVKGRFTISRDNAKNTVYLQMNSLKPEDTAVYYCAAVWLTNAESTQEYWGQGTQVTVSSGGGGSTVILEYAHELSQDILSDALQQSAGGGSGSQVQLVESGGGLVQPGGSLRLSCAASGSIENIERMHWYRQAPGKQRELVAVIDSGGTTRYADSVKGRFTISRDNAKNTVYLQMNSLKPEDTAVYYCAAVWLTNAESTQEYWGQGTQVTVSSHHHHHH
notes: also called pp 2456 (W76S)

Target: PP917 (MBP-5HVZ-S3b-C8-H6)
Test: analytical SEC, 5HVZ dimer with smAKAP clone at 1:2 molar ratio

Row | Binder | binding result
1 | B1 | binds
2 | B2 | binds
